Molecules are shown by their SMILES.

Protein sequences, listed by entry. Tags and fused reporters are not part of them. Lines headed by an entry give the natural chain unless they say otherwise; changes in a name come on top. Residues count along the entry.
UniProt Q7RTX1, 21-841: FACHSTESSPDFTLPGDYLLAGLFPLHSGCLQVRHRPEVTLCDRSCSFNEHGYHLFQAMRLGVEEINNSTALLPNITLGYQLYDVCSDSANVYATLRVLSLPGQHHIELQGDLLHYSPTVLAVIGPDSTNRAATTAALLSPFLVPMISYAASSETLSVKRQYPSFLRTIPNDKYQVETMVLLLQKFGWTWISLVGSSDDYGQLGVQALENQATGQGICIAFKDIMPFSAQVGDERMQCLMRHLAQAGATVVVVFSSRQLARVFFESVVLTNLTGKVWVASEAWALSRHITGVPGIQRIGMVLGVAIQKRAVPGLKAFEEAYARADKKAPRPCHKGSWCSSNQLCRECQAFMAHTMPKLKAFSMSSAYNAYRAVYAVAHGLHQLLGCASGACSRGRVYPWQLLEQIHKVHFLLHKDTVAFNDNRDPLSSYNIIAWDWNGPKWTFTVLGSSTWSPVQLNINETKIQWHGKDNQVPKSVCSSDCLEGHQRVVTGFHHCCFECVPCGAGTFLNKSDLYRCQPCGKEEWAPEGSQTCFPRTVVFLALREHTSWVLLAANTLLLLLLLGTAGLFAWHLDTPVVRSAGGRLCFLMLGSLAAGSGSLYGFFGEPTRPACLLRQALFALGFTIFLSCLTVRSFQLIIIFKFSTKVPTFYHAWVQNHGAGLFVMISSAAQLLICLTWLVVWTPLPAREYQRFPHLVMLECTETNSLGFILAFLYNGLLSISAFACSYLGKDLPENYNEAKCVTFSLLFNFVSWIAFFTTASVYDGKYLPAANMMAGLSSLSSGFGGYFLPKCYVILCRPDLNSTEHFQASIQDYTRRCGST
UniProt Q923K1, 21-858 R173L/E221Q: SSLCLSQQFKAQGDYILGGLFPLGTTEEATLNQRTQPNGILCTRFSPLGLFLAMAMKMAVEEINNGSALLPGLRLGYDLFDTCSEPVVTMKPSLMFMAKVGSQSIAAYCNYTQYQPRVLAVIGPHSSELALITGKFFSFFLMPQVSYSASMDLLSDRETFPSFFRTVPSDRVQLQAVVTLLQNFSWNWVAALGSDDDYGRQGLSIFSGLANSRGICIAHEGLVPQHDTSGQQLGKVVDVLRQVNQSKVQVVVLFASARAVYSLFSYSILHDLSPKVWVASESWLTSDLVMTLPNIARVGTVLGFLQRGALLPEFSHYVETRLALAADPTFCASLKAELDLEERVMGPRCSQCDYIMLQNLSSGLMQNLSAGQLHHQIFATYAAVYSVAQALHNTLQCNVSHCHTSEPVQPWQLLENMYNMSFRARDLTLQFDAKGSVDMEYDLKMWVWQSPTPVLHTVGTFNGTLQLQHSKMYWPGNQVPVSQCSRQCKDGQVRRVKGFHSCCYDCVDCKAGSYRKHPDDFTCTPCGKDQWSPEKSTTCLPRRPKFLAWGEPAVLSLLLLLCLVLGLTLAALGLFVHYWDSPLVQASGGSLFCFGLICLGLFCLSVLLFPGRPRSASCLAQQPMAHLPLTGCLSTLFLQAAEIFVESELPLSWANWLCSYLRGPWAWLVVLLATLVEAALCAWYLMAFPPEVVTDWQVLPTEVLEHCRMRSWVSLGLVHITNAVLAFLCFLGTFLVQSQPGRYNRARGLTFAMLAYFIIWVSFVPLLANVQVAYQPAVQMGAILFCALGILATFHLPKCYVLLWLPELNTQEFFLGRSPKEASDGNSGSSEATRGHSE
UniProt Q8TE23, 20-839: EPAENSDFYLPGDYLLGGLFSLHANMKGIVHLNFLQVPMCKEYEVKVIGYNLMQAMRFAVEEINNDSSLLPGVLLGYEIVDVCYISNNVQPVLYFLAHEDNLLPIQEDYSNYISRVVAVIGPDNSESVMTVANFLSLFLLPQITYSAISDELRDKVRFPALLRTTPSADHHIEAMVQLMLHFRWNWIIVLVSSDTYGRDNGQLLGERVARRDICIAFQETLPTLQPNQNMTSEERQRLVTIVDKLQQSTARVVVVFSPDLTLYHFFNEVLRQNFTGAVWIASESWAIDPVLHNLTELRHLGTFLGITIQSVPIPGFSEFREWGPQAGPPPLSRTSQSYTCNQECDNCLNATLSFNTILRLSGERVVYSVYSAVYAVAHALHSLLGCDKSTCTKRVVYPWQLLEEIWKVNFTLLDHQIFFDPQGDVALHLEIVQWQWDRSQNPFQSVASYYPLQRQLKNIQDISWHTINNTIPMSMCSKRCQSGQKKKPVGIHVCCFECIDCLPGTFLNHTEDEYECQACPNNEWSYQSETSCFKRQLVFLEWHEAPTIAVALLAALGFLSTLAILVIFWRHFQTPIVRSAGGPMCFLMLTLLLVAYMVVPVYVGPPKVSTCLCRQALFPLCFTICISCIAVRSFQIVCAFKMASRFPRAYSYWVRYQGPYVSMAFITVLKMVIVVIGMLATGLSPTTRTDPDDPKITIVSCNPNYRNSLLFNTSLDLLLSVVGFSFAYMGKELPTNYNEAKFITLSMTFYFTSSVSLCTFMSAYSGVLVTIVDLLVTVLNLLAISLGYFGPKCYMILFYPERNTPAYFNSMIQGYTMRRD

The target in one experiment is hTAS1R1/rTAS1R3(Mut3) (UniProt Q7RTX1+Q923K1, E221Q/R173L). Kind of experiment: Calcium assay, mutated rTAS1R3 co-expressed with hTAS1R1. Conditions: for response to the agonist alone: Mut3.
The target of the next experiment is T1, hTAS1R2/rTAS1R3(Mut3) (UniProt Q8TE23+Q923K1, E221Q/R173L).
T1 construct: The cDNA coding region of rTAS1R3 was synthesized with optimized-codon usage for human expression; expressed in transfected cells
Kind of experiment: Calcium assay, mutated rTAS1R3 co-expressed with hTAS1R2. Format: cell-based, human, rat. The conditions noted are these: sucralose alone, Fig. 4A.

As for `N[C@@H](CCC(=O)O)C(=O)O` [L-Glu, L-glutamic acid, reference compound], the “response to the agonist alone” value on hTAS1R1/rTAS1R3(Mut3) was “abolished”.

For `CCCC(CCC)NC(=O)c1ccc2c(c1)OCO2` [S807, N-(heptan-4-yl)benzo[d][1,3]dioxole-5-carboxamide, reference compound], at hTAS1R1/rTAS1R3(Mut3), the EC50 is 1400 ± 210 nM and the “response to the agonist alone” value was “severely impaired”.

As for `OC[C@H]1O[C@H](O[C@]2(CCl)O[C@H](CCl)[C@@H](O)[C@@H]2O)[C@H](O)[C@@H](O)[C@H]1Cl` [sucralose, reference compound], the EC50 on hTAS1R2/rTAS1R3(Mut3) came out at 339 ± 78 µM.

(Values after article PMC12615753, “Glutathione as a taste modulator: molecular mechanisms of interaction with umami and sweet taste receptors” (Food Chemistry: Molecular Sciences, 2025).)
